These are literature values, as cited in US9918467B2, “Anti-microbial disinfectant wipe and method of use” (Microlin, LLC, priority 2013, dated 2018).

The conditions of the data set: single silver compound used as silver ion source; aqueous.

For the substance silver salicylate, the “solubility for the compound” value was 950 µg/mL.
